Reference: patent EP4763839A1 (Pamplona Therapeutics (Shenzhen) Co., Ltd., priority 2023, dated 2025)
Structures can show the parent of a compound that is named as a salt.

Sequences of proteins named here, by UniProt entry; tags and fusion partners are left off.
UniProt Q9NWZ3, whole entry: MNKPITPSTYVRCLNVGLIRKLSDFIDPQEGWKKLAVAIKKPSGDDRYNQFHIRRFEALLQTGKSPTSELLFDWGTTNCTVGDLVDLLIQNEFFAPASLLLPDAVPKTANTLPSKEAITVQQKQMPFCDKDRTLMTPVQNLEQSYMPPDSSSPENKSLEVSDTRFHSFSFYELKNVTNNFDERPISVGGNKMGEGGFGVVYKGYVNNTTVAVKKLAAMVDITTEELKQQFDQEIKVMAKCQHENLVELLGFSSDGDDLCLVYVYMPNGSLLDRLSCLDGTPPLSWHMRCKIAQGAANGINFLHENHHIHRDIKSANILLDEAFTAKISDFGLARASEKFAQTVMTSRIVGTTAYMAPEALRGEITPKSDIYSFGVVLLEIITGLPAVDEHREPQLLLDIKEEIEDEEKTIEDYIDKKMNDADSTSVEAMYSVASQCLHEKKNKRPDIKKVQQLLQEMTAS

Target: IRAK4 (Homo sapiens, UniProt Q9NWZ3)
Test: Degradation of IRAK4 in THP1 cells, Western blot
Type: cell-based
Design: Degradation of IRAK4 in THP1 by compound; host or cells: THP-1
Conditions: for Dmax: THP-1

Row | Structure (SMILES) | DC50 [nM] | Dmax [%]
1 | Cn1c(=O)n(C2CCC(=O)NC2=O)c2ccc(N3CCC(CCN4CCN(c5ccc(-n6cc(NC(=O)c7cccc(C(F)(F)F)n7)c(C(N)=O)n6)cc5)CC4)C3)cc21 (stereo not drawn) [Compound A307, N-(3-Carbamoyl-1-(4-(4-(2-(1-(2,6-dioxopiperidin-3-yl)-3-methyl-2-oxo-2,3-dihydro-1H-benzo[d]imidazol-5-yl)pyrrolidin-3-yl)ethyl)piperazin-1-yl)phenyl)-1H-pyrazol-4-yl)-6-(trifluoromethyl)picolinamide formate] | < 100 | > 60
2 | NC(=O)c1nn(-c2ccc(N3CCN(CCN4CCN(c5ccc6c(c5)C(=O)N(C5CCC(=O)NC5=O)C6=O)CC4)CC3)cc2)cc1NC(=O)c1cccc(C(F)(F)F)n1 (stereo not drawn) [Compound A173] | < 100 | > 60
3 | NC(=O)c1nn(-c2ccc(N3CCN(CC4CCN(c5ccc(C(=O)NC6CCC(=O)NC6=O)cc5)CC4)CC3)cc2)cc1NC(=O)c1cccc(C(F)(F)F)n1 (stereo not drawn) [Compound A171] | 100 to 1000 | > 60
4 | COc1ccc(C(=O)N2CCC(CN3CCN(c4ccc(-n5cc(NC(=O)c6cccc(C(F)(F)F)n6)c(C(N)=O)n5)cc4)CC3)C2)cc1N1CCC(=O)NC1=O (stereo not drawn) [Compound A303] | < 100 | > 60
5 | COc1ccc(C(=O)N2CCC(CCN3CCN(c4ccc(-n5cc(NC(=O)c6cccc(C(F)(F)F)n6)c(C(N)=O)n5)cc4)CC3)C(F)(F)C2)cc1N1CCC(=O)NC1=O (stereo not drawn) [Compound A168] | < 100 | > 60
6 | NC(=O)c1nn(-c2ccc(N3CCN(CC4CCN(c5ccc(NC6CCC(=O)NC6=O)cc5F)CC4)CC3)cc2)cc1NC(=O)c1cccc(C(F)(F)F)n1 (stereo not drawn) [Compound A195] | < 100 | > 60
7 | NC(=O)c1nn(-c2ccc(N3CCN(CCC4CCN(c5ccc(NC6CCC(=O)NC6=O)cc5F)CC4)CC3)cc2)cc1NC(=O)c1cccc(C(F)(F)F)n1 (stereo not drawn) [Compound A194, N-(3-Carbonyl-1-(4-(4-(2-(4-(((2,6-dioxopiperidin-3-yl)amino)-2-fluorophenyl)piperidin-4-yl)ethyl)piperazin-1-yl)phenyl)-1H-pyrazol-4-yl)-6-(trifluoromethyl)picolinamide] | < 100 | 40 to 60
8 | CC(C)(O)c1nn(-c2ccc(N3CCN(C4CCN(c5ccc(NC6CCC(=O)NC6=O)cn5)CC4)CC3)cc2)cc1NC(=O)c1cccc(C(F)(F)F)n1 (stereo not drawn) [Compound A441] | < 100 | > 60
9 | COc1ccc(C(=O)N2CCC(OC(=O)N3CCN(c4ccc(-n5cc(NC(=O)c6cccc(C(F)(F)F)n6)c(C(N)=O)n5)cc4)CC3)C(F)(F)C2)cc1N1CCC(=O)NC1=O (stereo not drawn) [Compound A308] | < 100 | > 60
